Assays:
[1] = Tetrathionate stability in stored plasma; conditions: plasma stored at 4° C. for 48 h; other conditions (4° C. 24 h, −80° C. 24 or 48 h) not significantly different
cyanide poisoning = test: Pig model of cyanide poisoning, intramuscular antidote; conditions: pigs, 18 mg/kg intramuscular; model 100% lethal
[2] = tested on: methylmercaptan (methanethiol) poisoning; test: Mouse methylmercaptan gas exposure model, intramuscular antidote; conditions: mice, intramuscular injection after 15 min, methylmercaptan gas total 40 min; all six saline-injected died

## O=S(=O)(O)SSS(=O)(=O)O
[1]
  tetrathionate in stored plasma versus zero time samples: significantly different from the zero time samples
Cyanide poisoning
  survival: three of four
[2]
  survival: five of six

From patent US12161664B2, “Tetrathionate for cyanide and methylmercaptan poisoning” (dated 2024)
